What was measured:
Experiment in all cases: Cell viability assay (MTS), relative cell survival
Details in all cases: dose range, 4 h + 44 h incubation
[1] = test system: BT474 (human breast cancer) cells; assay type: cell-based
Protocol: (§1) Plates were rocked for 4 hours at 37° C. and 5% CO2 and then 60 μL of complete media was added to each well to bring the total volume to 100 μL and the incubation was continued, without rocking, for 44 hours at 37° C. and 5% CO2. At the conclusion of the incubation, relative cell viability was determined via MTS assay (Promega) according to manufacturer's instructions. Specifically, the media was removed from the wells and 100 μL of fresh complete media was added to each well. 20 μl of the prepared MTS reagent was added to each well. The plate was then incubated with rocking at 37° C. and 5% CO2 and readings were taken of the plate at 1, 2, and 3 hours at 490 nm using a spectrophotometer.
as §1, with “The cells per well were plated in black-walled, clear-bottom, 96-well plates. […] Plates” for “Plates”, “Specifically, the media was removed from the wells and 100 μL of fresh complete media was added to each well. 20 μl of the prepared MTS reagent was added to each well.” left out, “spectrophotometer. […]” for “spectrophotometer.”

[2] = test system: BT474-TR (trastuzumab-resistant human breast cancer) cells; assay type: cell-based
Protocol: (§2) BT474 (human breast cancer) cells, BT474-TR (trastuzumab-resistant human breast cancer) cells, SKBR3 (human breast cancer) cells, and SKBR3-TR (trastuzumab resistant breast cancer) cells were incubated with various concentrations of Eos-001, trastuzumab, or combination trastuzumab and pertuzumab. The concentration of Eos-001 is reported in μM doxorubicin, and the concentration of trastuzumab or pertuzumab is reported in μM antibody. The cells per well were plated in black-walled, clear-bottom, 96-well plates. […] At the conclusion of the incubation, relative cell viability was determined via MTS assay (Promega) according to manufacturer's instructions. […] The plate was then incubated with rocking at 37° C. and 5% CO2 and readings were taken of the plate at 1, 2, and 3 hours at 490 nm using a spectrophotometer. […]
Trastuzumab or pertuzumab treatment of BT474-TR cells was compared to treatment with Eos-001, a combined treatment with Eos-001 and pertuzumab, or Eos-001 after 4 hours of pertuzumab pretreatment. […] At the conclusion of the incubation, relative cell viability was determined via MTS assay (Promega) according to manufacturer's instructions. […] The plate was then incubated with rocking at 37° C. and 5% CO2 and readings were taken at 490 nm using a spectrophotometer. […]

[3] = test system: SKBR3 (human breast cancer) cells; assay type: cell-based
Protocol: as §2, with “plates. 48 hours later, the media was aspirated and replaced with complete media and the indicated concentrations of Eos-001, trastuzumab (Tz), or a combination of trastuzumab and pertuzumab (Tz+Pz), or an untreated control at a total volume of 40 μL.” for “plates.”
(§3) To verify the contribution of HER3 targeted toxicity of the Eos-001 nanoparticles, a HER3 peptide was used as a competitive inhibitor. […] Cell survival was measured after 48 hours, and compared to cells treated with a mock saline. […]

[4] = test system: SKBR3-TR (trastuzumab resistant breast cancer) cells; assay type: cell-based, human
Protocol: as §2, with “plates. 48 hours later, the media was aspirated and replaced with complete media and the indicated concentrations of Eos-001, trastuzumab (Tz), or a combination of trastuzumab and pertuzumab (Tz+Pz), or an untreated control at a total volume of 40 μL.” for “plates.”
as §3

With trastuzumab the “effect on survival / killing of BT474 cells” value [1] was “effective in killing BT474 cells”, the “killing of BT474-TR cells” value [2] was “not the BT474-TR cells” and the “killing of SKBR3 cells” value [3] was “Neither trastuzumab nor the combination of trastuzumab and pertuzumab were effective”. For the same substance, the “killing of SKBR3-TR cells” value [4] was “Neither trastuzumab nor the combination of trastuzumab and pertuzumab were effective”.

— patent US20250255978A1, “DRUG-DELIVERY NANOPARTICLES AND TREATMENTS FOR DRUG-RESISTANT CANCER” (Cedars-Sinai Medical Center, priority 2016, published 2025)
